Patent EP4847492A1, “USE OF SALT FORMS OF COMPOUND AND CRYSTAL FORMS THEREOF IN TREATMENT OF HEART FAILURE WITH PRESERVED EJECTION FRACTION” (dated 2026)

What was measured:
[1] = Water activity competition experiment, ethanol/water, 5°C and 25°C; conditions: for water activity (a.w.) at which choline salt Form A transforms to choline salt Form B / Form B is thermodynamically more stable: ethanol/water, 5 days
[2] = system: HFpEF animal model; test: HFpEF mouse model (HFD + L-NAME), echocardiography and Doppler imaging
[3] = Preliminary physical stability, open storage at 25°C/60% RH and 25°C/80% RH
[4] = system: Jun; conditions: model treatment group (T-5224) vs model control group; Figure 3D
[5] = Crystal form stability under ambient conditions; conditions: approximately 20 to 25 °C, 60% to 75% RH
[6] = Thermal analysis (DSC/TGA), thermal stability
[7] = Body weight (obesity) of HFpEF model mice; conditions: model treatment group (T-5224); Figure 3C
[8] = Solid stability, 25°C/92.5%RH open and 60°C closed, 1 week (XRPD, HPLC, color); set-up: CL (color) / Color: key to the marks not given beside the values; conditions: for Color / Solid (XRPD) / Purity, Solid (HPLC): Solid; for Purity, Solid (HPLC): Initial Purity 98.8%
[9] = Solubility at 37°C in water, buffer and simulated biological fluids (2 h, 24 h)
[10] = Simulated wet granulation experiment
[11] = Simulated tableting experiment; conditions: 5 minutes; for crystal form transition and crystallinity after tableting: XRPD
[12] = Simulated dry grinding experiment
[13] = Pharmacokinetic study, plasma concentration by LC-MS/MS; conditions: Oral administration 12 mg/kg, Balb/c mice, male, fasted
[14] = AW2, Ethanol/water (86:14,v:v) (a.w.=0.6)
[15] = AW3, Ethanol/water (90:10,v:v) (a.w.=0.5)
[16] = AW4, Ethanol/water (93:7,v:v) (a.w.=0.4)
[17] = AW5, Ethanol/water (95:5,v:v) (a.w.=0.3)
[18] = AW6, Ethanol/water (97:3,v:v) (a.w.=0.2)
[19] = AW7, Ethanol/water (99:1,v:v) (a.w.=0.1)
[20] = GNSE1, Granulation solvent Ethanol
[21] = individual animals, listed as T-5224 choline salt Form B, 12 mg/kg
[22] = mean of 3, listed as T-5224 choline salt Form B, 12 mg/kg

## O=C(O)CCc1cc(C(=O)c2ccc(OC3CCCC3)cc2O)ccc1OCc1ccc2c(O)noc2c1
[1]; AW1, Water (a.w.=1)
  XRPD after 5 days at 5°C: T-5224 Form D, gel-like sample
  XRPD after 5 days at 25°C: T-5224 Form D, gel-like sample
[1]; [14]
  XRPD after 5 days at 5°C: Choline salt Form B
  XRPD after 5 days at 25°C: T-5224 Form C with additional diffraction peaks (possibly from T-5224 Form A)
[1]; [15]
  XRPD after 5 days at 5°C: Choline salt Form B
  XRPD after 5 days at 25°C: T-5224 Form C
[1]; [16]
  XRPD after 5 days at 5°C: Choline salt Form B
  XRPD after 5 days at 25°C: T-5224 Form C + Choline salt Form B
[1]; [17]
  XRPD after 5 days at 5°C: Choline salt Form B
  XRPD after 5 days at 25°C: Choline salt Form B
[1]; [18]
  XRPD after 5 days at 5°C: Choline salt Form B
  XRPD after 5 days at 25°C: Choline salt Form B
[1]; [19]
  XRPD after 5 days at 5°C: Choline salt Form B
  XRPD after 5 days at 25°C: Choline salt Form B
[1]; AW8, Ethanol (a.w.=0)
  XRPD after 5 days at 5°C: Choline salt Form B
  XRPD after 5 days at 25°C: Choline salt Form B
[1]; AW9, Ethanol/water (80:20,v:v) (a.w.=0.7)
  XRPD after 5 days at 5°C: T-5224 Form A + Form C
[2]; Example A, HFD + 0.5g/L L-NAME mice, T-5224 every other day from 5th to 13th week, 0.8 mg in 1% PVP, total dose 250 mg/kg, followed to 15th week, vs model control
  diastolic function (E/E'): significantly improved
[3]; 25°C/60%RH, open storage for 3 days
  moisture absorption and color change of the solid: No significant moisture absorption of the solid; no significant color change.
[3]; 25°C/80%RH, open storage for 2 days
  moisture absorption and color change of the solid: No significant moisture absorption of the solid; no significant color change.
[4]
  expression of Jun in mouse cardiomyocytes: down-regulated
[5]
  crystal form change under ambient conditions: transformed to choline salt Form B after 2 days
[6]
  thermal stability, decomposition starting: around 120 °C
[7]
  mouse obesity (body weight): improved

## O=C(O)CCc1cc(C(=O)c2ccc(OC3CCCC3)cc2O)ccc1OCc1ccc2c(O)noc2c1 [Choline salt Form B]
[1]; 5°C
  water activity (a.w.) at which choline salt Form A transforms to choline salt Form B / Form B is thermodynamically more stable: ≤ 0.6
[1]; 25°C
  water activity (a.w.) at which choline salt Form A transforms to choline salt Form B / Form B is thermodynamically more stable: ≤ 0.3
[2]; Example 6, 3 mg/kg per administration, every other day, 0.5% PVP, 3 weeks after administration, Figure 73
  diastolic function (E/E'): significantly improved
[8]; 25°C/92.5%RH open and 60°C closed, summary statement
  physical and chemical stability: good physical and chemical stability
[8]; 25°C/92.5%RH, open containers
  Color: A
  Solid (XRPD): Choline salt Form B
  Purity, Solid (HPLC): 98.8%
[8]; 60°C, closed containers
  Color: A
  Solid (XRPD): Choline salt Form B
  Purity, Solid (HPLC): 98.8%
[9]; FaSSGF, pH 1.6, 37°C
  pH of the supernatant 24h: 1.6
[9]; FaSSIF-v1, pH 6.5, 37°C
  pH of the supernatant 24h: 6.7
[9]; FeSSIF-v1, pH 5.0, 37°C
  pH of the supernatant 24h: 5.0
[9]; Water, 37°C
  pH of the supernatant 24h: 7.7
[10]; [20]
  Remarks (crystallinity): No significant change in crystallinity
  XRPD: Choline salt Form B
[10]; wetted with ethanol, ground, dried 10 minutes, XRPD
  crystal form transition and crystallinity after wet grinding: no crystal form transition and no significant decrease in crystallinity
[11]; CSE1, Pressure 2MPa
  Remarks (crystallinity): No significant change in crystallinity
  XRPD: Choline salt Form B
[11]; CSE2, Pressure 5MPa
  Remarks (crystallinity): Slight decrease in crystallinity
  XRPD: Choline salt Form B
[11]; CSE3, Pressure 10MPa
  Remarks (crystallinity): Slight decrease in crystallinity
  XRPD: Choline salt Form B
[11]; tableting (<2 MPa)
  crystal form transition and crystallinity after tableting: no crystal form transition and no significant decrease in crystallinity
[11]; tableting pressure 5 to 10 MPa
  crystal form transition and crystallinity after tableting: no crystal form transition, and its crystallinity only slightly decreased
[12]; GSE1, Grinding time 5 min
  Remarks (crystallinity): No significant change in crystallinity
  XRPD: Choline salt Form B
[12]; manually ground 5 minutes, XRPD
  crystal form transition and crystallinity after dry grinding: no crystal form transition and no significant decrease in crystallinity
[13]; individual animals
  Tmax: 15 min
[13]; [21]
  AUC0-t: 2935 ng·h/mL and 2416 ng·h/mL and 3039 ng·h/mL
  AUC0-∞: 2941 ng·h/mL and 2421 ng·h/mL and 3051 ng·h/mL
  Cl -F: 68.0 mL/min/kg and 82.6 mL/min/kg and 65.6 mL/min/kg
  MRT: 47.4 min and 46.2 min and 39 min
  T1/2: 42 min and 45 min and 58.2 min
  Vz -F: 4.10 L/kg and 5.39 L/kg and 5.53 L/kg
[13]; mean of 3
  Tmax, Mean: 15 min
[13]; [22]
  AUC0-t, Mean: 2797 ng·h/mL
  AUC0-∞, Mean: 2804 ng·h/mL
  Cl -F, Mean: 72.1 mL/min/kg
  Cmax, Mean: 5087 ng/mL
  MRT, Mean: 44.4 min
  T1/2, Mean: 48.6 min
  Vz -F, Mean: 5.01 L/kg
[6]; @ 140°C
  Thermal weight loss (TGA): 0.7% @ 140 °C

Several values for one entry are separate records, joined by “and”; a condition that tells them apart may be missing. Equal values may be shown once. Where a name gives a salt, the structure may show the parent alone.
